Measurements taken from patent US20260209200A1, “SALTS OF A DIHYDROOROTATE DEHYDROGENASE (DHOD) INHIBITOR” (priority 2022, published 2026).

Tests used:
[1] = Kinetic solubility of PP-001 salts in FaSSIF (HPLC); format: physicochemical; conditions: 4 mL FaSSIF, 25° C., target 2 mg/mL
Method: Approximately 8 mg (calculated as freebase) of each salt was weighed out into each glass vial and then 4 ml of FaSSIF was added (target concentration was 2 mg/mL). The sample was kept stirring on a magnetic stirrer at a speed of I 00 RPM under 25° C. Then at the time points of initial, 0.5 hr, 1 hr, 2 hrs and 24 hrs, 0.5 mL of sample solution was transferred into 1.5 mL centrifugation tube and centrifuged at 12,000 RPM for 10 min. The supernatant was diluted by 50% ACN suitable and analyzed by HPLC.
An HPLC method of testing solubility was performed as follows in Table A: […]

[2] = Thermodynamic (equilibrium) solubility of PP-001 salts in FaSSIF; format: physicochemical; conditions: 3 mL FaSSIF, 37° C.; for Final pH: pH tested after 24 hours
Method: Procedure of equilibrium solubility test: […] As the solid was completely dissolved, add more sample to keep it saturated. […] Then at the time point 2 hrs, 0.5 mL of sample solution was transferred into 1.5 mL centrifugation tube and centrifuged at 12,000 RPM for 10 min. The supernatant was diluted by 50% ACN suitable and analyzed by HPLC. The pH was tested after 24 hours.

Compound | Final pH [2] | Appearance after stirring for 24 hours ([2]; saturated) | Appearance after stirring for 24 hours [1] | Final pH [1]
NCCCC[C@H](N)C(=O)O [Lysine] | 6.53 |  | clear solution | 6.50
[Mg] [Magnesium] |  |  |  | 6.49
CNC[C@H](O)[C@@H](O)[C@H](O)[C@H](O)CO [Meglumine] | 6.36 | Suspension | clear solution | 6.52
[K+] [Potassium] | 6.49 |  |  | 
Sodium |  |  |  | 6.53
